Tested on: MeV wild-type
Test: MeV infection of human motor neurons, wild-type virus
Settings: 8 days of infection

CC[C@H](C)[C@H](NC(=O)[C@H](C)NC(=O)[C@H](CC(N)=O)NC(=O)CNC(=O)[C@H](CC(C)C)NC(=O)[C@H](CC(N)=O)NC(=O)[C@@H](NC(=O)CNC(=O)[C@@H](NC(=O)[C@H](CC(=O)O)NC(=O)[C@H](CC(C)C)NC(=O)[C@H](CCCNC(=N)N)NC(=O)[C@H](CCC(=O)O)NC(=O)[C@H](CC(C)C)NC(=O)[C@H](CO)NC(=O)[C@@H](NC(=O)[C@@H]1CCCN1C(=O)[C@@H]1CCCN1C(C)=O)[C@@H](C)CC)C(C)C)[C@@H](C)O)C(=O)N[C@@H](C)C(=O)N[C@@H](CCCCN)C(=O)N[C@@H](CC(C)C)C(=O)N[C@@H](CCC(=O)O)C(=O)N[C@@H](CC(=O)O)C(=O)N[C@@H](C)C(=O)N[C@@H](CCCCN)C(=O)N[C@@H](CCC(=O)O)C(=O)N[C@@H](CC(C)C)C(=O)N[C@@H](CC(C)C)C(=O)N[C@@H](CCC(=O)O)C(=O)N[C@@H](CO)C(=O)N[C@@H](CO)C(=O)N[C@@H](CC(=O)O)C(=O)N[C@@H](CCC(N)=O)C(=O)N[C@H](C(=O)N[C@@H](CC(C)C)C(=O)N[C@@H](CCCNC(=N)N)C(=O)NCC(=O)N[C@@H](CO)C(=O)NCC(=O)N[C@@H](CO)C(=O)NCC(=O)N[C@@H](CSC1CC(=O)N(CCCC(=O)NCCOCCOCCOCCOCCC(=O)NCCN(CCNC(=O)CCOCCOCCOCCOCCNC(=O)CCCN2C(=O)CC(SC[C@H](NC(=O)CNC(=O)[C@H](CO)NC(=O)CNC(=O)[C@H](CO)NC(=O)CNC(=O)[C@H](CCCNC(=N)N)NC(=O)[C@H](CC(C)C)NC(=O)[C@@H](NC(=O)[C@H](CCC(N)=O)NC(=O)[C@H](CC(=O)O)NC(=O)[C@H](CO)NC(=O)[C@H](CO)NC(=O)[C@H](CCC(=O)O)NC(=O)[C@H](CC(C)C)NC(=O)[C@H](CC(C)C)NC(=O)[C@H](CCC(=O)O)NC(=O)[C@H](CCCCN)NC(=O)[C@H](C)NC(=O)[C@H](CC(=O)O)NC(=O)[C@H](CCC(=O)O)NC(=O)[C@H](CC(C)C)NC(=O)[C@H](CCCCN)NC(=O)[C@H](C)NC(=O)[C@@H](NC(=O)[C@H](C)NC(=O)[C@H](CC(N)=O)NC(=O)CNC(=O)[C@H](CC(C)C)NC(=O)[C@H](CC(N)=O)NC(=O)[C@@H](NC(=O)CNC(=O)[C@@H](NC(=O)[C@H](CC(=O)O)NC(=O)[C@H](CC(C)C)NC(=O)[C@H](CCCNC(=N)N)NC(=O)[C@H](CCC(=O)O)NC(=O)[C@H](CC(C)C)NC(=O)[C@H](CO)NC(=O)[C@@H](NC(=O)[C@@H]3CCCN3C(=O)[C@@H]3CCCN3C(C)=O)[C@@H](C)CC)C(C)C)[C@@H](C)O)[C@@H](C)CC)[C@@H](C)CC)C(=O)O)C2=O)CCO[C@H]2CC[C@@]3(C)C(=CC[C@H]4[C@@H]5CC[C@H]([C@H](C)CCCC(C)C)[C@@]5(C)CC[C@@H]43)C2)C1=O)C(=O)O)[C@@H](C)CC (some centres unmarked) [[HRC450-485-peg4]2-chol]
MeV wild-type infection and spread in human motor neurons (listed as MV HRC4): block MeV wild-type infection in human motor neurons
MeV wild-type infection and spread in human motor neurons (listed as MeV HRC4): block the spread of virus in motor neurons
